For assay [1], the target named is T1, Mu-type opioid receptor (Homo sapiens, UniProt P35372). The experiment in a line: Displacement of [3H]DAMGO from human mu opioid receptor expressed in CHOK1 cells. In kind it is cell-based. The conditions noted are these: cho-k1. On the technique in general: In a radioligand displacement assay an active substance lowers the binding of a labelled ligand.
The target in assay [2] is T1, Mu-type opioid receptor. The note with it: cho-k1.

The chains behind the UniProt entries cited, without tags or fusion partners.
UniProt P35372, whole entry, looked up: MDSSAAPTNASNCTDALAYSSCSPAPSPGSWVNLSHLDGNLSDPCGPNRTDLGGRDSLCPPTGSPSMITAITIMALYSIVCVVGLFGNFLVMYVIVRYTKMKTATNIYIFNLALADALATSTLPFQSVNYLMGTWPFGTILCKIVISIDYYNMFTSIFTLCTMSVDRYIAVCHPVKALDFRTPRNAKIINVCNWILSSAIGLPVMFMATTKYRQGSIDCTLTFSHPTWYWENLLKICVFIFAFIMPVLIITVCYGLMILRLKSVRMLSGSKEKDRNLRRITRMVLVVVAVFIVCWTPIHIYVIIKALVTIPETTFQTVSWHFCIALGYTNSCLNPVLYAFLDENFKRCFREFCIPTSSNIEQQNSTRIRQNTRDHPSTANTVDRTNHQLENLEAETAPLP

As usually defined, the Ki is the dissociation constant of the complex between target and ligand, obtained from inhibition or displacement. Low values mean higher affinity, high ones lower affinity. Broadly, the EC50 is the concentration giving half of the maximal effect. A low value points to a more potent agent.

With `CC1(N2CCC(n3c([C@H]4CCCNC4)nc4ccccc43)CC2)CCCCCCC1`, at Mu-type opioid receptor [1], the affinity, expressed as Ki, was 0.59 nM. Further, the EC50 at Mu-type opioid receptor [2] was found to be 23 nM.
